pKd: −log10 of the molar value.
Molecular target: GST-CDK4 (Sino Biological) (UniProt P11802)
Assay: microscale thermophoresis (MST); Alexa Fluor 647-labelled MBP-P16p at 70 nM, GST-CDK4 titrated from 3.84 µM

pKd: 6.93
Substance: MBP-P16p (linear counterpart of MBP-cycP16p) (from UniProt P0AEX9 27-392; P42771 83-103) (other; other documents disagree on this pair)

Source: patent US20260275324A1, “UNNATURAL AMINO ACID IN CELLULO SYNTHESIS FOR SITE-SPECIFIC PROTEIN MODIFICATION” (The Chinese University of Hong Kong, priority 2023, published 2026)
